The values below come from patent US11999759B2, “Boronic acid derivatives and therapeutic uses thereof” (Qpex Biopharma, Inc., priority 2016, dated 2024).

Sequences of proteins named here, by UniProt entry; tags and fusion partners are left off. Residues count along the entry.
UniProt C7C422, 29-270, looked up, species assumed: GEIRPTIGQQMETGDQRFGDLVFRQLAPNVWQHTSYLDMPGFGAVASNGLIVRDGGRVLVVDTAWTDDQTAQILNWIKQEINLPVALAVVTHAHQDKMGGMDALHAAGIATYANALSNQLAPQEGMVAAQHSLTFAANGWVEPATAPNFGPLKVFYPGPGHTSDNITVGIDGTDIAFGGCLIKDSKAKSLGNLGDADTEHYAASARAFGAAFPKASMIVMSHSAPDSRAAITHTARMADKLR

As a reminder, the Ki is the equilibrium dissociation constant of an inhibitor or competing ligand from its target.

For the experiment, the target named is NDM-1 (Klebsiella pneumoniae, UniProt C7C422). Put plainly: Inhibition of imipenem cleavage by purified NDM-1. The format is biochemical. The note with it: imipenem reporter substrate; 37° C.; read-out: Ki (NDM-1, IMI). On the procedure:
Ki values of inhibition of purified class B enzymes NDM-1 and IMP-1 were determined spectrophotometrically using imipenem as reporter substrate. Purified enzymes were mixed with various concentrations of inhibitors in reaction buffer and incubated for 10 min at room temperature. Imipenem was added and substrate cleavage profiles were recorded at 294 nm every 30 seconds for 30 minutes at 37° C. These experiments further confirmed that the described compounds have the ability to inhibit carbapenemase activity of metallo-beta-lactamases.

Regarding `O=C(O)c1c(F)ccc2c1OB(O)[C@@H]1C[C@H]21` [Compound 13, (1aR,7bS)-5-fluoro-2-hydroxy-1a,7b-dihydro-1H-cyclopropa[c][1,2]benzoxaborinine-4-carboxylic acid], the Ki was less than 100 nM. With `O=C(O)c1c(F)ccc2c1OB(O)[C@H]1C[C@@H]21` [Compound 12, (1aS,7bR)-5-fluoro-2-hydroxy-1a,7b-dihydro-1H-cyclopropa[c][1,2]benzoxaborinine-4-carboxylic acid], the Ki fell in the range of 100 to 1000 nM.

On to `O=C(O)c1c(F)ccc2c1OB(O)C1CC21` (stereo not drawn) [Compound 4, 5-Fluoro-2-hydroxy-1a,7b-dihydro-1H-cyclopropa[c][1,2]benzoxaborinine-4-carboxylic acid], for which the Ki lay within 100 to 1000 nM.
